Data published in paper PMC5006944 (Cell, 2016).

How the values were obtained:
[1] = test system: B-RAF and c-RAF binding to GST-RAS^G12D; settings: HeLa cells treated overnight, 2 mM
[2] = test system: WM-1617 melanoma cell line (V599E BRAF); settings: WM-1617 cells, RAS-independent MAPK signaling

Structure (SMILES) | binding of B-RAF and c-RAF to activated GST-RAS^G12D [1] | ERK or MAPK phosphorylation [2]
CCCS(=O)(=O)Nc1ccc(F)c(C(=O)c2c[nH]c3ncc(-c4ccc(Cl)cc4)cc23)c1F [PLX4032, vemurafenib, reference compound] | strong associations | completely block
COc1cc(OC)c(/C=C/S(=O)(=O)Cc2ccc(OC)c(NCC(=O)O)c2)c(OC)c1 [RGS, rigosertib] | inability of the B-RAF and c-RAF proteins to bind | little or no inhibition
